# From publication PMC11254172 (International Journal for Parasitology: Drugs and Drug …, 2024)
# Entries after “also recorded” stand apart in the source; their conditions may differ.
# Tested on: T. gondii ME49 tachyzoites
# Type: cell-based, Toxoplasma gondii
compound,measurement,value
CC(C)(CO)Cn1nc(-c2ccc3cc(OC4CC4)ccc3c2)c(C(N)=O)c1N [BKI-1708],Ultrastructural alteration of intracellular tachyzoites (TEM),induced the formation of multinucleated schizont-like complexes (MNCs); also recorded: induced the formation of intracellular multinucleated complexes (MNCs)
